The record followed here is article PMC12526004, “Tiliroside Suppresses Uric Acid Production in Hepatocytes and Attenuates Purine-Induced Hyperuricemia in Male ICR Mice” (Molecules, 2025).

Protein sequences, listed by entry. Tags and fused reporters are not part of them.
UniProt P80457, whole entry: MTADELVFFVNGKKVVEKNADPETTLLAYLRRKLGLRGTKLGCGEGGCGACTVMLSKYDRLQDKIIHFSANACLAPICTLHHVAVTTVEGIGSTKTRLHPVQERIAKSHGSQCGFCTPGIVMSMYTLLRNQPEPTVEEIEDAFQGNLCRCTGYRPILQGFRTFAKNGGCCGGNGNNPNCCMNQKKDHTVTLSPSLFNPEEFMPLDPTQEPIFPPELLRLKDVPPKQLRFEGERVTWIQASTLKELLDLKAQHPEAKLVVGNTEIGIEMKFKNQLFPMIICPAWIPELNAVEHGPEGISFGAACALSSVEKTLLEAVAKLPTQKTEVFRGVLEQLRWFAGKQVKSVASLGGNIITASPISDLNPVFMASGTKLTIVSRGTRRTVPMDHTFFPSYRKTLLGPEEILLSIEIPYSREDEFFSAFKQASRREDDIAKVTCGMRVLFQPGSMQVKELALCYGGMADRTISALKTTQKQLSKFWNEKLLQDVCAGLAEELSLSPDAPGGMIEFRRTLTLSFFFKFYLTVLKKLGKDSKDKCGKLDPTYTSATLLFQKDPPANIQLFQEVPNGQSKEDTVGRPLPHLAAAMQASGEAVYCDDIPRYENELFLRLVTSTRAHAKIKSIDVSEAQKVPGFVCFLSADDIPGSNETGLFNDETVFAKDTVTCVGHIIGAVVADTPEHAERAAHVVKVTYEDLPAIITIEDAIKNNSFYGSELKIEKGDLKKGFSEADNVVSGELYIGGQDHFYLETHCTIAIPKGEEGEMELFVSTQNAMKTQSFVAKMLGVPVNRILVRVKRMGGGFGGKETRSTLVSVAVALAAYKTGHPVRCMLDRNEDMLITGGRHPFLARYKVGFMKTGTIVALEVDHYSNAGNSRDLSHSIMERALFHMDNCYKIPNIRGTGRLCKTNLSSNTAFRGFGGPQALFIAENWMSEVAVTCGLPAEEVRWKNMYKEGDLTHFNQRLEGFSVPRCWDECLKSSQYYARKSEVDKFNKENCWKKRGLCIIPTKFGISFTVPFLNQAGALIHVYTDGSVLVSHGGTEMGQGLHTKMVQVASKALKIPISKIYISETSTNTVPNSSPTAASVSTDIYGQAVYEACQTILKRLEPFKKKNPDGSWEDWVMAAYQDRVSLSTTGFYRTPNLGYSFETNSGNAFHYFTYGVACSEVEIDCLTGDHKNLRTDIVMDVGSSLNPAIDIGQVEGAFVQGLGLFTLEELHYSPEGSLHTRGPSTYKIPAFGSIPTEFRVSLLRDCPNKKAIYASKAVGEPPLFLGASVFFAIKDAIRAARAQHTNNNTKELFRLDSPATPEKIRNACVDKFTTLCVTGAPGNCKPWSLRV

pIC50: −log10 of the molar value.

By pIC50 is commonly meant −log10 of the IC50, conventionally taken in molar units.

The assay has as its target xanthine oxidase (bovine milk-derived) (Bos taurus, UniProt P80457). Description: XO inhibition assay in vitro (UV absorbance at 295 nm). The assay is classed as biochemical. Particulars: xanthine substrate, 37 °C, mean of three independent experiments, read-out: IC50, direct XO inhibitory activity.

Turning to `O=c1c(O)c(-c2ccc(O)cc2)oc2cc(O)cc(O)c12` [Kaempferol, kaempferol], the negative logarithm of the IC50 (pIC50) was 5.41.
